Patent US20150273086A1, “HYPERPOLARIZED 2-OXOGLUTARATE AS METABOLIC AGENT IN MR” (BRACCO IMAGING S.P.A., priority 2012, published 2015)

Conditions: 30 s after dissolution; phosphate buffer, pH 7.2

1-^13C-2-oxoglutaric acid [hyperpolarized 1-^13C-2-oxoglutarate]
polarization: 14%
